Amino acid sequences for entries named in this document (tags omitted). A change or cut given only in a name is not applied to a line headed by its entry.
UniProt P08483: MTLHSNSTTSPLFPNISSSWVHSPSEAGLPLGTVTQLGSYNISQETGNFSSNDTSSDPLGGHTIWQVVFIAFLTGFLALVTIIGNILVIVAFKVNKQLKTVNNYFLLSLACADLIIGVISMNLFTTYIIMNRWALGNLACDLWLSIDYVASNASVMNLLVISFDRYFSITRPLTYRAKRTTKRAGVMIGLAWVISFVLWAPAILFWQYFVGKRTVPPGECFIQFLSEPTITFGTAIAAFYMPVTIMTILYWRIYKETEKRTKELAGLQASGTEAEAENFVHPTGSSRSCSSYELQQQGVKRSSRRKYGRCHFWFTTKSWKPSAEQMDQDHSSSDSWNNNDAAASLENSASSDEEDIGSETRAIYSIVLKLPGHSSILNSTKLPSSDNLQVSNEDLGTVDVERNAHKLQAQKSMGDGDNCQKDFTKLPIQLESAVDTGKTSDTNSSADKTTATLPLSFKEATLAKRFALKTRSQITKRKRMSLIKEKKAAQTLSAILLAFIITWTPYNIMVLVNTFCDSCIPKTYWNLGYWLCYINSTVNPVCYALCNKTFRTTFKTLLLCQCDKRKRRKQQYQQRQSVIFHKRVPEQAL

In publication PMC13005129 (Biochemistry, 2025):

Columns and labels:
[1] = molecular target: M3R-Gq/βarr2 (Rattus norvegicus, UniProt P08483, C542A/C546S/C560S/C562S/DEL274-469); conditions: COS-7 cells expressing M3R-Gq; BRET
[2] = molecular target: M3R-Gq/βarr1 (Rattus norvegicus, UniProt P08483, C542A/C546S/C560S/C562S/DEL274-469); conditions: COS-7 cells expressing M3R-Gq; BRET

## C[N+](C)(C)CCOC(N)=O [carbachol, carbamoylcholine chloride]
[1]
  recruitment of βarr2: failed to recruit either of the two β-arrestins
[2]
  recruitment of βarr1: failed to recruit either of the two β-arrestins
